{"source": "patent US20070060508A1", "about": "“Binding molecules” (priority 2002, published 2007)", "key": {"[1]": {"details": "human, in vivo; cited from earlier work"}, "Daudi cells": {"system": "Daudi cells", "test": "Cytotoxicity test: NK effector cells (YT) incubated with tumor target cells (Daudi) plus test peptide, LDH release", "type": "cell-based", "details": "positive control, Human IL-2 5 nM, YT and Daudi cells 1:10, 16 h", "description": "For the cytotoxicity measurement, NK cells, which specifically kill tumor cells, as effector cells were incubated with tumor cells as target cells in the presence of the test peptides. The cytotoxicity measurement was performed by measuring the release of lactate dehydrogenase (LDH) according to the standard protocol by a cytotoxicity test kit (Promega, Germany) and in a microwell plate reader. As NK cells (E), YT cells (DSMZ, Germany) were used. As target cells (T), Daudi cells (DSMZ, Germany) were used. YT and Daudi cells were seeded in microwell plates at a ratio of 1:10 and incubated in the presence of 0.3, 3, 30:M test peptide for 16 h. Human IL-2 (Sigma) in a concentration of 5 nM served as the positive control.\nOn the next day, 10:l of lysis buffer each were added to the cells and the cells were incubated for additional 2 h. Subsequently, 5:l of the agent were transferred into a second microwell plate and combined with 50:l of substrate buffer. After a 30 min incubation, the reaction was terminated by 50:l of stop solution and the absorption of the formed MTT color complex was measured in a microwell plate reader."}, "[2]": {"details": "cited from earlier work"}}, "data": [{"substance": "IL-2: Human IL-2 (Sigma), cytokine of 133 amino acids, positive control; recombinant product Aldesleukin, Proleukin", "values": [{"measurement": "half life", "setting": "[1]", "value": "below 10 min"}, {"measurement": "Cytotoxicity", "setting": "Daudi cells", "value": 60, "unit": "%"}, {"measurement": "treatment-related mortality rate", "setting": "[2]; observed during a study", "value": 4, "unit": "%"}, {"measurement": "treated patients showing a reaction to the IL2 therapy", "setting": "[2]; patients, tumor therapy", "value": "about 30%"}]}]}
